Target: Npm core+A2 truncation (1–145) (Xenopus laevis)
Assay: SEC-SAXS; complex of core+A2 and H2A/H2B purified by SEC, 4.83 mg/mL on Superdex 200 PC3.2/300, 5 mM DTT; Porod volume

## H2A/H2B dimer (from UniProt P06897 2-123; P02281 1-126) (complex)
  stoichiometry N (H2A/H2B dimers per Npm pentamer): 5

Source: paper PMC5738438
